The values that follow come from PMC5979437.

In this series the test system is Nc1ncnc2c1ncn2[C@@H]1O[C@H](COP(=O)(O)OP(=O)(O)OP(=O)(O)O)[C@@H](O)[C@H]1O. In words: purified protein. The settings on record: detergent-solubilised, 20 mM Tris pH 7.4, 200 mM NaCl, 10 mM MgCl2, 0.2% Triton X-100, 37 °C, data fitted to a sigmoidal equation.

As usually defined, the Km is the substrate concentration at which the rate is half of its maximum. As usually defined, the kcat is the maximal rate divided by the concentration of active sites. As to VcaM (Vibrio cholerae non-O1), the Km came out at 852 µM and the turnover number (kcat) amounted to 0.07 s⁻¹.
